Structures can show the parent of a compound that is named as a salt.
Key:
β1-AR = β1-AR (Rattus norvegicus (Rat), UniProt P18090); details: read-out: Ki β1
β2-AR = β2-AR (Homo sapiens (Human), UniProt P07550); details: β2-AR binding data used for CoMFA

By UniProt entry, the sequences of proteins in these tests, tags left out.
UniProt P18090, whole entry: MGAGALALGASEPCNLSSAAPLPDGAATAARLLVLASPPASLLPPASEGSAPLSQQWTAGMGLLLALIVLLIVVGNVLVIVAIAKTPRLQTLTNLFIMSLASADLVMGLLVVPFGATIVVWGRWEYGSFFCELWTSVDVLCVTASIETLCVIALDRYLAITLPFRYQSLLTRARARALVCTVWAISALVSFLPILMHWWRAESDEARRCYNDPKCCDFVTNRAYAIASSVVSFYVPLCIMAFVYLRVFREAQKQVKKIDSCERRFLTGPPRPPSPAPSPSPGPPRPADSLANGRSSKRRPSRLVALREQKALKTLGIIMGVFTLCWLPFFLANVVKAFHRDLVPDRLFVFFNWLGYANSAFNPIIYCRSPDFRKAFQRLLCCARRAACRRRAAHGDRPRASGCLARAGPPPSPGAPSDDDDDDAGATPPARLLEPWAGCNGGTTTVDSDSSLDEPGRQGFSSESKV

C[C@@H](Cc1cccc2ccccc12)NC[C@@H](O)c1cc(O)cc(O)c1 [(S,S)-5, (S,S)-(+)-5-{1-hydroxy-2-[1-methyl-2-(1-naphthyl)ethylamino]ethyl}-1,3-benzenediol fumarate]
Ki (β1-AR): > 100 µM

O=C(O)/C=C/C(=O)O.Oc1cc(O)cc([C@H](O)CNCCc2ccccc2)c1 [(S)-7, (S)-(−)-5-(1-hydroxy-2-phenethylaminoethyl)-1,3-benzenediol fumarate]
pKd Measured (β2-AR): 4.69

O=C(O)/C=C/C(=O)O.Oc1cc(O)cc([C@@H](O)CNCCc2ccccc2)c1 [(R)-7, (R)-(−)-5-(1-Hydroxy-2-phenethylaminoethyl)-1,3-benzenediol fumarate]
pKd Measured (β2-AR): 4.98
